In PubChem BioAssay AID1778 (Sanford-Burnham Center for Chemical Genomics, 2009):
“And” between values parts separate entries of the source, which are not always exact repeats. Equal entries are not always repeated. The list shows a part of the results. Results with a measured potency or affinity are listed apart. The source made the active and inactive calls. No stated cut-off is given here; in the data, active means inhibition above about 50%; inactive means the rest.

By UniProt entry, the sequences of proteins in these tests, tags left out. Where a name states a change or a piece, a line headed by the entry shows the natural chain unless it says otherwise.
UniProt P41145: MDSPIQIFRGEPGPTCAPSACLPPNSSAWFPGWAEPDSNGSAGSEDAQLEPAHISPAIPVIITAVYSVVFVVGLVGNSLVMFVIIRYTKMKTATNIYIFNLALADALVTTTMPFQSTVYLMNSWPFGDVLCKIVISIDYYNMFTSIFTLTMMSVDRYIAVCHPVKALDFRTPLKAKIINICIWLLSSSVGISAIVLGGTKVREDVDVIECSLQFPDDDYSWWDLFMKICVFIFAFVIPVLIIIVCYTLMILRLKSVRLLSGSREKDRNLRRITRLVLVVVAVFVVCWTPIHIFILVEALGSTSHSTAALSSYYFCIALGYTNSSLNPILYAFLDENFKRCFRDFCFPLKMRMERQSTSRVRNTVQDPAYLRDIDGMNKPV

biological target: Kappa-type opioid receptor (Homo sapiens) (UniProt P41145); assay: KOR antagonists, beta-arrestin recruitment, cell-based, luminescence, uHTS (AID 1778); settings: antagonist mode, at 10 µM, active compounds read high

Compound | inhibition
COc1ccc(CNC(=O)CCNC(=O)N2CCn3c2nc2ccccc23)cc1 | inactive: -15.7%
Cc1cc2ncn(C3CC(=O)N(C)C3=O)c2cc1C (configuration not stated) | inactive: 19.3%
Cc1ccc2c(c1)C1CN(C)CCC1N2C(=S)Nc1ccc(Cl)cc1Cl (configuration not stated) | inactive: -1.2%
Cn1c(=O)c2c(nc(NCc3ccccc3)n2CC(N)=O)n(C)c1=O | inactive: 26.4%
Cc1ccc(/C=N/NC(=O)Cn2cnc3ccccc32)o1 | inactive: 25.5%
CC(C)N(C(=O)Cn1c(-c2ccccc2Cl)nc2ccccc21)c1ccccc1 | inactive: 33.1%
Cn1c(=O)[nH]c(=O)c2c1nc(N1CCCCCC1)n2CCN1CCCCCC1 | inactive: -48.9%
CCOC(=O)c1cccc(NC(=O)Cn2c(CC(=O)NC)nc3ccccc32)c1 | inactive: 26.1%
CSCC[C@H](NC(=O)N1CCn2c1nc1ccccc12)C(=O)NCc1ccccc1 | inactive: -76.5%
C(=N\c1nc2ccccc2n1CCN1CCCCC1)/c1cccs1 | inactive: 15.9%
Cn1c(=O)[nH]c(=O)c2c1nc(CN1CCN(c3ccc(F)cc3)CC1)n2CCN1CCOCC1 | inactive: 16.1%
COc1ccc2nc(NP(=O)(c3ccccc3)c3ccccc3)sc2c1 | inactive: -25.2%
CCCn1c(=O)[nH]c(=O)c2c1nc(-c1ccc3c(c1)OCCO3)n2CCN1CCOCC1 | inactive: -16.1%
CC(O)CNc1nc2ccccc2n1CC(=O)N1CCN(Cc2ccccc2)CC1 (configuration not stated) | inactive: -32%
CCCCNc1nc2ccccc2n1CC(=O)Nc1c(C)cccc1CC | inactive: 7.5%
COc1cccc(NC(=O)[C@@H](NC(=O)N2CCn3c2nc2ccccc23)C(C)C)c1 | inactive: 5%
COc1cc(I)ccc1[As](=O)(O)O | inactive: 10.7%
c1ccc(CN2CCC(Nc3nc(-c4ccccc4)nc4ccccc34)CC2)cc1 | inactive: -15.4%
Cc1ccc2oc(-c3cccc(NC(=O)Cn4cnc5c(=O)n(C)c(=O)n(C)c54)c3)nc2c1 | inactive: -19.3%
Cc1cccc(CSc2nc3ccncc3n2CC(=O)Nc2ccc(C)c(C)c2)c1 | inactive: 6.7%
Cc1cc2ncn(C3CC(=O)N(Cc4ccccc4)C3=O)c2cc1C (configuration not stated) | inactive: -9.6%
COc1cc(NC(=O)[C@@H](NC(=O)N2CCn3c2nc2ccccc23)C(C)C)cc(OC)c1 | inactive: -25.9%
Nc1nonc1-c1nc2ccccc2n1CC(=O)N1CCN(c2ccc(F)cc2)CC1 | inactive: -0.9%

Compound | inhibition
CN(c1ccccc1)S(=O)(=O)c1cccc(NC(=O)Cn2cnc3c2c(=O)n(C)c(=O)n3C)c1 | inactive: -21.1%
CN(C)CCn1c(=N)n(CC(O)c2ccc(Cl)c(Cl)c2)c2ccccc21 (configuration not stated) | inactive: -2.1%
COc1ccc(N/C(=N/P(=O)(N2CCOCC2)N2CCOCC2)N2CCOCC2)cc1 | inactive: 6.2%
CN(C)C(=O)Cn1c(SCC(=O)NCc2ccc3c(c2)OCO3)nc2ccccc21 | inactive: -83.1%
c1ccc2c(c1)nc1n2CCN1CCNC1CCCCC1 | inactive: -40.7%
Cn1c(=O)c2ncn(CC(=O)Nc3cccc(-c4nc5ccccc5s4)c3)c2n(C)c1=O | inactive: -52.6%
Cc1ccc(Cn2nnnc2CN2CCC(n3nnc4cc(C(F)(F)F)ccc43)CC2)cc1 | inactive: -13.1%
Nc1nonc1-c1nc2ccccc2n1CC(=O)NC1CCCC1 | inactive: -11.8%
O=C(O)CCc1nn2c3ccccc3n(CCN3CCCCC3)c2nc1=O | inactive: -12.1%
Cc1cnc(NC(=O)Cn2cnc3c2c(=O)n(C)c(=O)n3C)s1 | inactive: -18.3%
CC(C)(C)NC(=O)Cn1c(SCC(=O)NC2CC2)nc2ccccc21 | inactive: 3.2%
N=c1n(CCN2CCCCC2)c2ccccc2n1CC(O)c1ccc(Cl)c(Cl)c1 (configuration not stated) | inactive: -68.4%
CCN(CC)c1ccc(CNc2nc3ccccc3n2CCN2CCOCC2)cc1 | inactive: -23.7%
Cc1ccc(S(=O)(=O)Nc2ccc(Cl)cc2)cc1NC(=O)Cn1cnc2c1c(=O)n(C)c(=O)n2C | inactive: -16.4%
CC(C)NC(=O)CSc1nc2ccccc2n1CC(=O)N(C(C)C)C(C)C | inactive: 25.4%
Cc1ccc2c(c1)C1CN(C)CCC1N2C(=O)c1ccco1 (configuration not stated) | inactive: -30.6%
O=C1Nc2ccccc2C12Nc1ccccc1-c1nc3ccccc3n12 (configuration not stated) | inactive: 11.7%
CC(NC(=O)[C@H](C)NC(=O)N1CCn2c1nc1ccccc12)c1ccccc1 (some centres not stated) | inactive: -12.8%
Cc1ccccc1NC(=O)Cn1c(=O)n(C)c2ccccc21 | inactive: -31.3%
Cc1ccccc1OCC(O)Cn1c(=N)n(CCN2CCOCC2)c2ccccc21 (configuration not stated) | inactive: 2% and inactive: -10.9%
CCN(CC)CCn1c(NCc2ccc3c(c2)OCO3)nc2ccccc21 | inactive: -5.4%
O=C(NCc1ccccc1)N1CCn2c(nc3ccccc32)C1 | inactive: 15.4%
N=c1n(CCCOc2ccc(Br)cc2)c2ccccc2n1CC(N)=O | inactive: 8.5%

Compound | inhibition
COc1ccc(NC(=O)Cn2c(NCC(C)O)nc3ccccc32)cc1Cl (configuration not stated) | inactive: -15.8%
O=C(Cn1c2[n+](c3ccc(C(F)(F)F)cc31)CCCCC2)Nc1ccc(Br)cc1 | inactive: 0.8%
CC(O)c1nc2ccccc2n1CC(=O)Nc1ccc(F)cc1Cl (configuration not stated) | inactive: -14.4%
CN1CCC(N(C)c2nc(-c3ccc([N+](=O)[O-])cc3)nc3ccccc23)CC1 | inactive: 20.6%
O=C(Nc1ccc(F)cc1)N1CCn2c(nc3ccccc32)C1 | inactive: -13.9%
C[C@H](NC(=O)N1CCn2c1nc1ccccc12)C(=O)NCc1ccco1 | inactive: -20.5%
O=[As](O)(c1ccc(O)cc1)c1ccccc1O | inactive: 2.3%
COc1ccc(NC(=O)N2CCn3c2nc2ccccc23)cc1 | inactive: 7%
C[As](=O)(O)c1cccc(C(=O)O)c1 | inactive: -6.4%
CN1CCN(c2nc3c(c(=O)[nH]c(=O)n3C)n2CC(N)=O)CC1 | inactive: -7.7%
CSc1nc2ccccc2n1CC(=O)Nc1c(C)cccc1C | inactive: 9.6%
Cc1ccc(SCc2nc3ccccc3n2CC(=O)Nc2c(C)cccc2C)cc1 | inactive: 8.2%
Cn1c(=O)c2c(ncn2CC(=O)N/N=C/C(Br)=C/c2ccccc2)n(C)c1=O | inactive: 10.2%
Cc1ccc(S(=O)(=O)Nc2ccc3c(c2)nc2n3CCN(Cc3ccccc3)C2)cc1 | inactive: 47.2%
Cc1ccc(OP(=O)(Nc2ccc([N+](=O)[O-])cn2)Oc2ccc(C)cc2)cc1 | inactive: 24.2%
Fc1ccc2c(c1)nnn2C1CCN(Cc2ccccc2)CC1 | inactive: 1.9%
Brc1ccc(CNc2nc3ccccc3n2CCN2CCCCC2)cc1 | inactive: 17.7%
COc1ccc(/C=N/NC(=O)Cn2c(Cc3ccc(OC)c(OC)c3)nc3ccccc32)cc1 | inactive: 3.9%
COCCn1c(=O)c2c(nc3n2CCN3c2ccc(C)cc2)n(C)c1=O | inactive: 14.1%
CC(Cc1ccc(O)cc1)NCC(O)c1cc(O)cc(O)c1 (configuration not stated) | inactive: 0.7%
Cc1ccc2nc3c(c(C)c2c1)CC(C(Cl)Cl)S3 (configuration not stated) | inactive: 6.9%
COc1ccc(CCNC(=O)[C@H](CCSC)NC(=O)N2CCn3c2nc2ccccc23)cc1OC | inactive: -5.9%
O=C(Cn1c(C(F)(F)F)nc2ccccc21)N/N=C/c1ccco1 | inactive: 1.7%

Compound | inhibition
CCOC(=O)Cn1c(=O)c2c(nc3n2CCN3Cc2ccccc2)n(C)c1=O | inactive: -6.7%
CN(C)CCn1cnc2c1c(=O)n(C)c(=O)n2C | inactive: -9.5%
Cn1c(=O)c2c(ncn2CC(=O)N2CCN(c3cccc(Cl)c3)CC2)n(C)c1=O | inactive: -3.5%
Cc1ccc2c(c1)C1CN(C)CCC1N2C(=O)CCCN1C(=O)c2cccc3cccc(c23)C1=O (configuration not stated) | inactive: 17.7%
CC(C)NC(=O)Cn1c(SCC(=O)c2ccc(F)cc2)nc2ccccc21 | inactive: -13.6%
CCC(=O)Nc1nc2ccccc2n1CCN(CC)CC | inactive: 16.8%
COc1ccccc1NC(=O)N1CCn2c(nc3ccccc32)C1 | inactive: 3.6%
Cc1nc2ccccc2n1CC(=O)NCCN1CCCC1 | inactive: 7.9%
CC1(C)c2ccccc2N2CCC(=O)NC21/C=C/c1ccco1 (configuration not stated) | inactive: -22.1%
Cc1ccsc1/C=N/NC(=O)Cn1cnc2ccccc21 | inactive: 5.3%
ClCCSc1nnc(-c2cccnc2)o1 | inactive: 15.2%
Oc1ccccc1CNc1nc2ccccc2n1CCN1CCCCC1 | inactive: -27.8%
Cc1nc2ccccc2n1C1CCN(Cc2nnnn2CCc2ccccc2)CC1 | inactive: -1.3%
CC(C)c1ccc(OP(=O)(Nc2ccccn2)Oc2ccccc2F)cc1 (configuration not stated) | inactive: 26.3%
c1csc(CNc2nc3ccccc3n2CCN2CCOCC2)c1 | inactive: -50.3%
CCC(C(=O)NC1CCCCC1)n1c(SCc2ccccc2F)nc2ccncc21 (configuration not stated) | inactive: 14.6%
C=C(C)Cn1c(=O)c2c(nc3n2CCN3c2cccc(Cl)c2C)n(C)c1=O | inactive: 2%
CCN(CC)C(=S)SC(NC=O)C(Cl)(Cl)Cl (configuration not stated) | inactive: 14.4%
O=C(Nc1nc2ccccc2n1CCN1CCOCC1)c1cn(-c2ccccc2)nc1-c1ccccc1 | inactive: -30.6%
CC(C)NC(=O)NP(=O)(Oc1ccccc1)Oc1ccccc1 | inactive: -22.9%
O=C(CCNC(=O)N1CCn2c1nc1ccccc12)NCc1ccc(F)cc1 | inactive: -22.4%
CC1c2nc3ccccc3n2C(CC(=O)NCCCN2CCOCC2)C(=O)N1Cc1ccccc1 (configuration not stated) | inactive: 1.6%
N=c1n(CCN2CCCCC2)c2ccccc2n1CC(=O)c1ccc(Cl)c(Cl)c1 | inactive: -16.8%
